In ChEMBL document CHEMBL5316273, “Small Molecule Inhibitors of Protein Kinase D: Early Development, Current Approaches, and Future Directions” (J Med Chem, 2023):

Experiment: Selectivity index, ratio of IC50 for inhibition of PKD1 (unknown origin) to IC50 for inhibition of PKD1 autophosphorylation at S916 residue in human PANC-1 cells
Type: cell-based

CC[C@H](N)CNc1ccnc(-c2cc(-c3cnn(C)c3)ccc2O)n1
Ratio IC50: > 1000
